Earlier results, collected in patent publication US9492404B2, “Compositions and methods for treatment of taupathy” (Revalesio Corporation, priority 2010, dated 2016).

Tested on: MS
Details: in vivo

B1: interferon-β: naturally occurring protein produced by fibroblasts, drug for MS (protein, UniProt P01574 22-187, looked up)
Interferon beta: MSYNLLGFLQRSSNFQCQKLLWQLNGRLEYCLKDRMNFDIPEEIKQLQQFQKEDAALTIYEMLQNIFAIFRQDSSSTGWNETIVENLLANVYHQINHLKTVLEEKLEKEDFTRGKLMSSLHLKRYYGRILHYLKAKEYSHCAWTIVRVEILRNFYFINRLTGYLRN
Which “effectiveness in reducing the rate of MS episodes” value does the source give for B1 here?
Its value is 18-38%.
